Results from patent US9458198B1, “Cyclic peptide-based NPR-B agonists” (priority 2009, dated 2016).

Biological target: T1, NPR-B (Homo sapiens, UniProt P20594)
T1 construct: a functional assay using endogenously NPR-B expressing GTM-3 cells; endogenous in cells; host or cells: GTM-3 (transformed human trabecular meshwork cells)
T1 sequence (P20594 23-1047): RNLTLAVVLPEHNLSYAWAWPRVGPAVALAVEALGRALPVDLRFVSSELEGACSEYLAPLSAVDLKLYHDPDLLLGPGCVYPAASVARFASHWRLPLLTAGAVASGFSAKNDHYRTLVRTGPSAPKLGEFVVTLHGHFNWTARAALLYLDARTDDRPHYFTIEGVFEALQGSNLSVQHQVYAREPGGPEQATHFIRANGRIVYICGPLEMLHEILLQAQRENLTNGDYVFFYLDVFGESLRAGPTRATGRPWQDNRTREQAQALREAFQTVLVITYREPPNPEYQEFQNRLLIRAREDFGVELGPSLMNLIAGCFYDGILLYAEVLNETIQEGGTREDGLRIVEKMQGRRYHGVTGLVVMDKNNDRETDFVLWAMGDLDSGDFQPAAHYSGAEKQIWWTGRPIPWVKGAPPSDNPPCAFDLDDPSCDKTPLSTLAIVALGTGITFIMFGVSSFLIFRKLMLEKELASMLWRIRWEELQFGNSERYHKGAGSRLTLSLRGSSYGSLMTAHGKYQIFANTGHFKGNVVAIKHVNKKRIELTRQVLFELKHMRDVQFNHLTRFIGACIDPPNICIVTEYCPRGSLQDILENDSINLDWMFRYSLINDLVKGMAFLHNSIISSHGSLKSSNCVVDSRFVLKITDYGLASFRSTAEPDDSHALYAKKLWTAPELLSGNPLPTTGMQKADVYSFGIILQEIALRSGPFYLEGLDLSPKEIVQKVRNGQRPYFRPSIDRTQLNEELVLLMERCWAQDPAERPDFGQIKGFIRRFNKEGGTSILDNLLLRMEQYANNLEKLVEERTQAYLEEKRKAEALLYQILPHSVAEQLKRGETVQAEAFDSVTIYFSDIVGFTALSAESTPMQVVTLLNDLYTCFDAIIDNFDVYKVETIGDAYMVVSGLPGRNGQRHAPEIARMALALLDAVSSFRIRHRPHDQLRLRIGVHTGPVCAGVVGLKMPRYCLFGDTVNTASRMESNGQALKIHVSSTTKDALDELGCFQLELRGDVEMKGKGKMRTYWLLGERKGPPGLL
Assay: NPR-B induced production of cyclic GMP in GTM-3 cells
Format: cell-based
Conditions: group needs both EC50 and Emax criteria, checked A then B then C, read-out: Activity (group): NPR-B activation, EC50 and Emax (CNP = 100%)
Protocol: The efficacy and potency of compounds to activate NPR-B were evaluated in a functional assay using endogenously NPR-B expressing GTM-3 cells (Pang et al. 1994, Curr Eye Res 13:51-63). In this assay the dose dependent production of cyclic GMP (cGMP) is determined and Emax (maximum activation) and EC50 values are calculated.
The cell culture medium is aspirated and each well is washed with 200 μl DMEM/Ham's F12=Medium (Gibco). Then, 200 μl Medium supplemented with 1 mM IBMX (3-Isobutyl-1-methyl-xanthin, Sigma) is added to each well and incubated for 15 min. at room temperature.
Final compound concentrations are in the range from 45 μM to 20 nM.

Structure (SMILES) | EC50
CCCCCC(=O)N[C@H]1CSSC[C@@H](C(N)=O)NC(=O)[C@H](CO)NC(=O)C2(CCCCC2)NC(=O)[C@H](CCCNC(=N)N)NC(=O)[C@H](CC(=O)O)NC(=O)[C@H](CC(C)C)NC(=O)[C@H](CCCCN)NC(=O)[C@H](CC(C)C)NC(=O)CNC(=O)[C@H](Cc2ccccc2)NC(=O)[C@@H](C)NC1=O [compound 115] | < 5 µM
CCCCCC(=O)N[C@H]1CSSC[C@@H](C(N)=O)NC(=O)[C@H](CO)NC(=O)CC2(CCCCC2)NC(=O)[C@H](CCCNC(=N)N)NC(=O)[C@H](CC(=O)O)NC(=O)[C@H](CC(C)C)NC(=O)[C@H](CCCCN)NC(=O)[C@H](CC(C)C)NC(=O)CNC(=O)[C@H](Cc2ccccc2)NC(=O)[C@@H](C)NC1=O [compound 118] | < 5 µM
CCCCCC(=O)N[C@H]1CSSC[C@@H](C(N)=O)NC(=O)[C@H](CO)NC(=O)[C@H](C2CCCCC2)NC(=O)[C@H](CCCNC(=N)N)NC(=O)[C@H](CC(=O)O)NC(=O)[C@H](CC(C)C)NC(=O)[C@H](CCCCN)NC(=O)[C@H](CC(C)C)NC(=O)CNC(=O)[C@H](Cc2ccccc2)NC(=O)[C@@H](C)NC1=O [compound 119] | < 5 µM
CCCCCC(=O)N[C@H]1CSSCCNC(=O)[C@H](CO)NC(=O)[C@H]([C@@H](C)CC)NC(=O)[C@H](CCCNC(=N)N)NC(=O)[C@H](CC(=O)O)NC(=O)[C@H](CC(C)C)NC(=O)[C@H](CCCCN)NC(=O)[C@H](CC(C)C)NC(=O)CNC(=O)[C@H](Cc2ccccc2)NC(=O)[C@@H](C)NC1=O [compound 120] | < 1 µM
CCCCCC(=O)N[C@H]1CSSC[C@@H](C(N)=O)NC(=O)[C@H](CO)NC(=O)[C@H]([C@@H](C)CC)NC(=O)[C@H](CCc2ccnc(N)n2)NC(=O)[C@H](CC(=O)O)NC(=O)[C@H](CC(C)C)NC(=O)[C@H](CCCCN)NC(=O)[C@H](CC(C)C)NC(=O)CNC(=O)[C@H](Cc2ccccc2)NC(=O)[C@@H](C)NC1=O [compound 121] | < 5 µM
